Source: PubChem BioAssay (ICCB-Longwood Screening Facility, Harvard Medical School)
GIV Gai3 FP – blocks GIV peptide binding to rat Galpha-i3. P08753. Galpha-i3/FITC-GIV peptide fluorescence polarization, 90 min; stronger effect = lower value; scaled: aluminum fluoride 0%, vehicle 100%. percent of control (FP), % (test concentration not listed). 0.42% of 210,000 active. AID 1224905;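 active = replicate mean at 85% of control or lower, very high polarization wells dropped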;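 also: wells of about 15 µL received 100 nL stock; the first replicate is given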
HCMV UL50-53 inh – cytomegalovirus nuclear egress complex inhibition. HTRF UL50-UL53 interaction, normalized percent inhibition. inhibition, % (test concentration not listed). hit rate 0.15% among 190,000; in the data active = inhibition above about 27%, passing the limit was not always enough
* hit, by the source's call; · = not tested or not shown. Only some compounds are listed: those with a hit (about 0.43% of all), similar ones and a draw of the others.

SMILES | GIV Gai3 FP | HCMV UL50-53 inh
CC(=O)N1CCc2c(sc(NC(=O)CSc3ccc(C)cc3)c2-c2nc3ccccc3s2)C1 | 100 | ·
CC(C)N1CCc2c(sc(NC(=O)C3CC3)c2-c2nc3ccccc3s2)C1 | -3.2* | ·
Cc1c(S(=O)(=O)NCC2CCCO2)c(C)n(C)c1-c1nnc(C2CCC2)o1 (stereo unspecified) | 103 | ·
O=C1CCCc2c1cc(C(=O)NCC1CCCCC1)c(=O)n2-c1ccc(F)cc1 | 101 | ·
Cc1ccsc1C1C=C(c2ccc(Br)cc2)Nc2ncnn21 (stereo unspecified) | 97 | ·
Clc1ccc(C2=CC(c3ccc(Br)cc3)n3ncnc3N2)s1 (stereo unspecified) | -22* | ·
Cc1ccc(N=Cc2nc(-c3cccc4ccccc34)oc2O)c(Br)c1 | 25* | ·
COc1cc(-c2nc(C=Nc3ccc(C)cc3Br)c(O)o2)cc(OC)c1OC | 110 | ·
COc1ccc(-c2cc(C(F)(F)F)n3ncc(C(=O)N4CCN(c5ccccc5)CC4)c3n2)cc1OC | 111 | ·
C=CC(=O)Nc1ccc(-c2nc3ccc(NC(=O)C=C)cc3[nH]2)cc1 | 111 | 54*
CC(C)(C)C(=O)Nc1ccc(-c2nc3ccc(NC(=O)C(C)(C)C)cc3[nH]2)cc1 | 100 | 9
CCCNC(=O)Cn1ccc2c(SCc3ccc(OC)cc3)nccc21 | 106 | ·

Entries of single compounds as entered above. Order of values: GIV Gai3 FP | HCMV UL50-53 inh
CC(C)N1CCc2c(sc(NC(=O)C3CC3)c2-c2nc3ccccc3s2)C1 is listed as -3.2* | ·
Cc1ccc(N=Cc2nc(-c3cccc4ccccc34)oc2O)c(Br)c1 is listed as 25* | ·

Taken from above.
GIV Gai3 FP result of Clc1ccc(C2=CC(c3ccc(Br)cc3)n3ncnc3N2)s1 (stereo unspecified) : -22*
GIV Gai3 FP result of CC(C)(C)C(=O)Nc1ccc(-c2nc3ccc(NC(=O)C(C)(C)C)cc3[nH]2)cc1 : 100
GIV Gai3 FP result of Cc1ccsc1C1C=C(c2ccc(Br)cc2)Nc2ncnn21 (stereo unspecified) : 97
HCMV UL50-53 inh result of C=CC(=O)Nc1ccc(-c2nc3ccc(NC(=O)C=C)cc3[nH]2)cc1 : 54*

Other records follow:
SMILES | GIV Gai3 FP | HCMV UL50-53 inh
Cc1ccc(Nc2c(-c3ccccc3O)nc3cc(C)ccn23)cc1 | 103 | -3
NC(=O)C[n+]1ccn2c(NC3CCCCC3)c(-c3ccccc3O)nc2c1 | -75* | ·
Cc1cc(C(=O)OCC(=O)Nc2sc3c(c2C#N)CCCC3)c2ccccc2n1 | · | 2
O=C(O)CN1C(=O)/C(=C\c2ccc(O)cc2)SC1=S | 196 | -124
CN(C)c1ccc(/C=C2/SC(=S)N(CC(=O)O)C2=O)cc1 | -61* | -20
Cc1nn(-c2ccc3nnc(C)n3n2)c2c1C(c1ccc(C(C)C)cc1)CC(=O)N2 (stereo unspecified) | 99 | ·
COc1ccc(-c2c(C#N)c(N)nc(SCC(=O)OCc3ccccc3)c2C#N)cc1 | 104 | 4
N#Cc1c(N)nc(SCC(=O)Nc2ccccc2)c(C#N)c1-c1ccccc1 | 98 | 24*
N#Cc1c(N)nc(SCC(=O)c2ccc(Br)cc2)c(C#N)c1-c1cccs1 | 100 | 40*
CCOc1ccc(-c2c(C#N)c(N)nc(SCC(=O)OC)c2C#N)cc1 | 105 | 73*
N#Cc1c(N)nc(SCC(=O)Nc2ccc([N+](=O)[O-])cc2)c(C#N)c1-c1ccco1 | 97 | -27
N#Cc1c(N)nc(SCC(=O)c2ccc(Br)cc2)c(C#N)c1-c1ccccc1 | 101 | 7
COc1cc2c(cc1OC)C(c1ccccc1)CC(=O)N2 (stereo unspecified) | 107 | 6
COc1cc2c(cc1OC)NC(=O)C2 | 97 | 64*
CCCc1cc(C2CCCN2C(=O)c2cnn3cc(Br)cnc23)no1 (stereo unspecified) | 130 | ·
O=C(c1ccc2ncsc2c1)N1CCCCC1 | · | 13
O=C(O)c1ccc2ncsc2c1 | · | 71*
CC(=O)n1c(O)c(/C=C2\C=c3ccc(C)cc3=NC2=O)sc1=N | 111 | ·
CC(=O)n1c(/C=C2\C=c3ccccc3=NC2=O)c(O)[nH]c1=S | 49* | 15
CCC(=O)N1c2cc(C)c(C)cc2-c2c(ssc2=S)C1(C)C | 99 | ·
O=c1[nH]c(=O)n(-c2ccccc2)c(O)c1C=Nc1ccc(S(=O)(=O)N2CCCCC2)cc1 | 106 | -8
O=S(=O)(/N=C/c1c(O)ccc2ccccc12)c1ccccc1 | 99 | ·
NS(=O)(=O)c1ccc(N=Cc2c(O)ccc3ccccc23)cc1 | · | 97*
O=S(=O)(c1ccc(N=Cc2c(O)ccc3ccccc23)cc1)N1CCCCC1 | · | 76*
O=C(Nc1ccc(OCC(O)Cn2c3ccccc3c3ccccc32)cc1)c1ccccc1 (stereo unspecified) | 103 | ·
CCN(CC)c1ccc(/C=N/NC=O)c(O)c1 | · | -35
CCN(CC)c1ccc(C=C2C(=O)c3ccccc3C2=O)c(O)c1 | -64* | -58
CC(=O)c1ccc(N2C(=O)/C(=C/c3ccc(-c4ccc(Br)cc4)o3)C=C2c2ccccc2)cc1 | 112 | ·
CCCc1cc(=O)[nH]c(Nc2ccccc2)n1 | 107 | 77*
CCc1cc(=O)[nH]c(Nc2ccccc2)n1 | 110 | -7
O=C(O)c1cnc(N2CCCC2)nc1 | 107 | ·
CC(C)c1ccc(NC(=O)CSc2nccn2C)cc1 | · | 9
CCCN1CC(CSC)C[C@@H]2c3cccc4[nH]cc(c34)C[C@H]21 (stereo partly specified) | · | 50*
O=C(CCCc1ccccc1)Nc1ncn[nH]1 | 101 | 5
CCCCCCc1cc2cc(-c3csc(Nc4ccc(Cl)cc4Cl)n3)c(=O)oc2cc1O | 196 | -23
CCCCCCc1cc2cc(-c3nnc(-c4ccc(C)cc4)o3)c(=O)oc2cc1O | 7.6* | 3
CN(C)N1C(=O)/C(=C/c2cccs2)SC1=Nc1ccccc1 | 85* | 3
COc1ccc2ccccc2c1/C=C1\SC(=Nc2ccccc2)N(N(C)C)C1=O | 108 | ·
O=S(=O)(c1cc(Cl)ccc1Cl)n1ccc(-c2ccc(Br)s2)n1 | 101 | -21
COc1ccc(/C=C2\C=C(c3ccccc3)N(c3ccc(C)c(C)c3)C2=O)cc1Br | 64* | ·
COc1ccc(/C=C2\C=C(c3ccccc3)N(c3ccccc3)C2=O)cc1Br | 115 | ·
O=c1[nH]c2ccccc2[nH]1 | · | -29
O=c1[nH]c2cc(Br)cnc2[nH]1 | 102 | 77*
CC[n+]1c(/C=C/C=C2/N(C)c3ccccc3C2(C)C)sc2ccccc21 | -20* | -10
CN1/C(=C\C=C(C#N)C#N)C(C)(C)c2ccccc21 | · | 14
COC(=O)c1cc2c(N)c(C(=O)c3cc(C#N)c(SC)nc3C)sc2nc1C | · | 9
CCCS(=O)(=O)N1N=C(c2ccc(Cl)cc2)CC1c1ccco1 (stereo unspecified) | 182 | -6
CCCS(=O)(=O)N1N=C(c2ccc(C)cc2)CC1c1ccco1 (stereo unspecified) | 7.4* | -10
CCOC(=O)c1ccc(NC(=O)c2sc(NC(=O)c3ccccc3F)c(C(=O)OCC)c2C)cc1 | 119 | 5
Cc1cc[n+](C2C(c3ccc([N+](=O)[O-])cc3)C(C#N)=C([S-])NC2(O)C2CC2)cc1 (stereo unspecified) | 111 | ·
COc1ccc(NC(=O)N2CCc3nc[nH]c3C2)c(OC)c1 | 103 | ·
Cn1nc2c3c(cccc31)C(=O)c1ccccc1-2 | · | -98
Cn1c(=O)cc2c3c(c(Br)ccc31)C(=O)c1ccccc1-2 | 111 | ·
Cn1c(=O)c(O)c2c3c(c(Br)ccc31)C(=O)c1ccccc1-2 | -29* | ·
O=C1c2ccccc2C(=O)N1CC1c2ccccc2CCN1S(=O)(=O)c1cc(Cl)sc1Cl (stereo unspecified) | 101 | ·
COc1ccc(Cl)cc1S(=O)(=O)N1CCN(C(=O)c2nsc3ccc(C)cc23)CC1 | 98 | -27
COc1ccc(Nc2nn3c(=O)c4ccccc4nc3s2)cc1 | · | -9
CC(C)c1ccc(Nc2nn3c(=O)c4ccccc4nc3s2)cc1 | 98 | 38*
O=C(O)CN1C(=O)/C(=C\c2ccc(-c3ccc(Cl)c([N+](=O)[O-])c3)o2)SC1=S | 111 | -44
CCN1C(=O)/C(=C\c2ccc(-c3ccc(Cl)c(C(=O)O)c3)o2)SC1=S | -15* | -391
CN(C1=CC(=O)c2ccccc2C1=O)c1ccccc1 | · | 51
COC1=CC(=O)c2ccccc2C1=O | 97 | 101*
CCOC(=O)c1[nH]nc(N)c1-c1cccc(OC)c1 | 105 | -20

Another view of some results above.
SMILES	GIV Gai3 FP	HCMV UL50-53 inh
COc1ccc(Cl)cc1S(=O)(=O)N1CCN(C(=O)c2nsc3ccc(C)cc23)CC1	98	-27
COc1ccc(Nc2nn3c(=O)c4ccccc4nc3s2)cc1	·	-9
